Experimental data published in US9242993B2, “Morpholino substituted bicyclic pyrimidine urea or carbamate derivatives as mTOR inhibitors” (CELLZOME LIMITED, priority 2011, dated 2016).

The chains behind the UniProt entries cited, without tags or fusion partners. Where a name states a change or a piece, a line headed by the entry shows the natural chain unless it says otherwise.
UniProt P42336, whole entry: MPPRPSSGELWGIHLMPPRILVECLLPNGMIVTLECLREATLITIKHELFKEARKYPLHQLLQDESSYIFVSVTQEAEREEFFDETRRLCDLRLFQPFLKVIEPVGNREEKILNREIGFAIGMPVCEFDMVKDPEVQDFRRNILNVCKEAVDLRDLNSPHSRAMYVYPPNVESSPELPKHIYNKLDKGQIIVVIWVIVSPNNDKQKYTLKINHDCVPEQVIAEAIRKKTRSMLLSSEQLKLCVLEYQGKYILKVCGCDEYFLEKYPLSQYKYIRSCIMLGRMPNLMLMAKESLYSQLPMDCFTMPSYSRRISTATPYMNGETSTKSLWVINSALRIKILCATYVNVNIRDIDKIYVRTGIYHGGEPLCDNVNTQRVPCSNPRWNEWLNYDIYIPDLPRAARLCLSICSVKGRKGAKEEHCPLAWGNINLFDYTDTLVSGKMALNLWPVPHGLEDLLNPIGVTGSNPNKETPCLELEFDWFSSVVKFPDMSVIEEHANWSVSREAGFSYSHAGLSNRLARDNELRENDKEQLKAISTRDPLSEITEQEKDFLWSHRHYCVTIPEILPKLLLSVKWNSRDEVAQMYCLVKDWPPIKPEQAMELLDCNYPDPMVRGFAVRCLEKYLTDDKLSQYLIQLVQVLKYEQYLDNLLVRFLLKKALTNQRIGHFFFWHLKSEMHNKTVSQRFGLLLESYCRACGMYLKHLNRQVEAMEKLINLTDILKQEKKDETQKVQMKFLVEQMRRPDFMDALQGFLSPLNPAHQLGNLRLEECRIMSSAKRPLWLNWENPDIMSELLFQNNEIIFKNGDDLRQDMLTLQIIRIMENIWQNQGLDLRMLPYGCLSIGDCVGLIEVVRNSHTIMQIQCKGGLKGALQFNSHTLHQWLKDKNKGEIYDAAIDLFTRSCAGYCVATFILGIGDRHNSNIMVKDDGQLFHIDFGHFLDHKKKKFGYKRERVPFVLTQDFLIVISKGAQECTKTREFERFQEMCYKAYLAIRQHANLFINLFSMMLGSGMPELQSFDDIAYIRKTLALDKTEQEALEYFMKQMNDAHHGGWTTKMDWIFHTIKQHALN
UniProt P42338: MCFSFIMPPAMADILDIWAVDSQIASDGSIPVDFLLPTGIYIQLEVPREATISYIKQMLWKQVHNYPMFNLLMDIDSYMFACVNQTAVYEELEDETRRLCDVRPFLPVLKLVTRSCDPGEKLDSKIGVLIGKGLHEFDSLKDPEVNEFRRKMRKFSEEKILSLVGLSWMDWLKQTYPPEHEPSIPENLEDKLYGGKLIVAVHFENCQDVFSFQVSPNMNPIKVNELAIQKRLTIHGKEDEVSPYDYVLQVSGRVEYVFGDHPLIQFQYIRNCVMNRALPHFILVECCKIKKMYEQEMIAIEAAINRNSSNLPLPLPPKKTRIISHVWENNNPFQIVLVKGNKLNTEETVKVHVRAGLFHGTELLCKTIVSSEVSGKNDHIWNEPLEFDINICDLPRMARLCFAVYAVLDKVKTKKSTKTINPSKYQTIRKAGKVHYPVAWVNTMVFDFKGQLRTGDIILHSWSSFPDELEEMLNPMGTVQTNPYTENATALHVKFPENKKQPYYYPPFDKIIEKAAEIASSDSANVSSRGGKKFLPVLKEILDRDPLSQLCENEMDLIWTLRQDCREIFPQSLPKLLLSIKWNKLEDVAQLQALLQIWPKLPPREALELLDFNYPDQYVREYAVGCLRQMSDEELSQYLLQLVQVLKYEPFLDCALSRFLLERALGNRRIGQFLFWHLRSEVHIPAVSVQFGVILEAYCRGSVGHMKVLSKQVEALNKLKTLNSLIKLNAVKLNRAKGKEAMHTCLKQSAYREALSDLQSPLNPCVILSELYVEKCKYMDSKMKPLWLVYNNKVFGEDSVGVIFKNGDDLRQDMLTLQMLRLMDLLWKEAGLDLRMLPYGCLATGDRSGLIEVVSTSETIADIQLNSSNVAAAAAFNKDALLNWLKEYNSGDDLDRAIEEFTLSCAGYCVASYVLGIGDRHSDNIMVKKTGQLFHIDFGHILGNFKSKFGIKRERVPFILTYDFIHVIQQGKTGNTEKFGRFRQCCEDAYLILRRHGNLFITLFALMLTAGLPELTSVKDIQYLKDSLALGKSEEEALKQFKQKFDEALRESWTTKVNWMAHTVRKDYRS
UniProt O00329: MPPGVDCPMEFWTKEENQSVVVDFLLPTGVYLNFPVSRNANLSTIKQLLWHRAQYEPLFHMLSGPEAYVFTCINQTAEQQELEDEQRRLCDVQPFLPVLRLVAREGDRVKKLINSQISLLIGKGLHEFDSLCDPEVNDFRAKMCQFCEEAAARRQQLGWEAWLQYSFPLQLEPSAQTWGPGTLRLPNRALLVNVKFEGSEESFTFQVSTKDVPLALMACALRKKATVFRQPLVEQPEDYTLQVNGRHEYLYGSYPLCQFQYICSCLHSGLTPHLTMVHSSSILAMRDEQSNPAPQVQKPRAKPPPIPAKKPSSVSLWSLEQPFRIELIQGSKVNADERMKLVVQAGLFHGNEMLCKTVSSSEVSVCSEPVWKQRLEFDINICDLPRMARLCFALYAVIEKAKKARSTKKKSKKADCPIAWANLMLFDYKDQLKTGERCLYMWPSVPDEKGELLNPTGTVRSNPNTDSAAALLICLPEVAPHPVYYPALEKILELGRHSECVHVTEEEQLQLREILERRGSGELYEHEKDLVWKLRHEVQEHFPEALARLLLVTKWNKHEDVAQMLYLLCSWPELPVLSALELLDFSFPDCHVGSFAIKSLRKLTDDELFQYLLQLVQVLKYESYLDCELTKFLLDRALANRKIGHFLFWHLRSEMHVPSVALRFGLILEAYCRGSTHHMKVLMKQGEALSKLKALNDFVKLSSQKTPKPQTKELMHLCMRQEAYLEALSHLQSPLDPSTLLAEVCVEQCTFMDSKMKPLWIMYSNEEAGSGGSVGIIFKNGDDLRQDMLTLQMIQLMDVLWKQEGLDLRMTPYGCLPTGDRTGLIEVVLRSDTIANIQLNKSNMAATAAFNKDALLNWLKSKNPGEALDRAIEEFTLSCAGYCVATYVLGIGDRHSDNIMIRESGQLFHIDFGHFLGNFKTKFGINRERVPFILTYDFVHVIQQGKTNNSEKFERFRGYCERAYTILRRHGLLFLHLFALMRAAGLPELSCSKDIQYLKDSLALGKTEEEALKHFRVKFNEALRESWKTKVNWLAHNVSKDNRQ

These compounds were tested against PI3K alpha (PI3Ka) (Homo sapiens, UniProt P42336) (assay: kinobeads assay, PI3K alpha). Conditions: Jurkat cell lysate, read-out: PI3Ka inhibition value (IC50), activity level.
Format: binding
For `C[C@H]1COCCN1c1nc(-c2ccc(NC(=O)NCCCF)cc2)nc2c1CS(=O)(=O)C2` [Example 28, (S)-1-(3-fluoropropyl)-3-(4-(4-(3-methylmorpholino)-6,6-dioxido-5,7-dihydrothieno[3,4-d]pyrimidin-2-yl)phenyl)urea], the IC50 was over 10 µM.
Compound `CC1c2nc(-c3ccc(NC(=O)NC4CC4)cc3)nc(N3CCOC[C@@H]3C)c2CS1(=O)=O` (stereo partly drawn) [Example 7, 1-cyclopropyl-3-(4-(7-methyl-4-((S)-3-methylmorpholino)-6,6-dioxido-5,7-dihydrothieno[3,4-d]pyrimidin-2-yl)phenyl)urea] has an IC50 of over 10 µM.
With `CCC1COCCN1c1nc(-c2ccc(NC(=O)NC3CC3)cc2)nc2c1CS(=O)(=O)C2` (centres unmarked) [Example 27, 1-cyclopropyl-3-(4-(4-(3-ethylmorpholino)-6,6-dioxido-5,7-dihydrothieno[3,4-d]pyrimidin-2-yl)phenyl)urea] the IC50 was over 10 µM.
Compound `CC1c2c(nc(-c3ccc(NC(=O)NC4CC4)cc3)nc2N2CCOC[C@@H]2C)CS1(=O)=O` (mixture of isomers) [Example 6, 1-cyclopropyl-3-(4-(5-methyl-4-((S)-3-methylmorpholino)-6,6-dioxido-5,7-dihydrothieno[3,4-d]pyrimidin-2-yl)phenyl)urea] has an IC50 of 1 to 10 µM.
For `C[C@H]1COCCN1c1nc(-c2ccc(NC(=O)NC3CC3)cc2)nc2c1S(=O)(=O)CC2` [Example 5, (S)-1-cyclopropyl-3-(4-(4-(3-methylmorpholino)-5,5-dioxido-6,7-dihydrothieno[3,2-d]pyrimidin-2-yl)phenyl)urea], the IC50 was over 10 µM.
Work on `O=C(Nc1ccc(-c2nc3c(c(N4C5CCC4COC5)n2)CS(=O)(=O)C3)cc1)NC1CC1` [Example 26, 1-(4-(4-(3-oxa-8-azabicyclo[3.2.1]octan-8-yl)-6,6-dioxido-5,7-dihydrothieno[3,4-d]pyrimidin-2-yl)phenyl)-3-cyclopropylurea] yielded an IC50 of over 10 µM.
In the case of `O=C(Nc1ccc(-c2nc3c(c(N4CC5CCC(C4)O5)n2)CS(=O)(=O)C3)cc1)NC1CC1` [Example 20, 1-(4-(4-(8-oxa-3-azabicyclo[3.2.1]octan-3-yl)-6,6-dioxido-5,7-dihydrothieno[3,4-d]pyrimidin-2-yl)phenyl)-3-cyclopropylurea], the IC50 is reported as over 10 µM.
Work on `O=C(NCCCF)Nc1ccc(-c2nc3c(c(N4CC5CCC(C4)O5)n2)CS(=O)(=O)C3)cc1` [Example 29, 1-(4-(4-(8-oxa-3-azabicyclo[3.2.1]octan-3-yl)-6,6-dioxido-5,7-dihydrothieno[3,4-d]pyrimidin-2-yl)phenyl)-3-(3-fluoropropyl)urea] yielded an IC50 of over 10 µM.
In the case of `CC1c2c(nc(-c3ccc(NC(=O)NC4CC4)cc3)nc2N2CCOCC2)CS1(=O)=O` (centres unmarked) [Example 31, 1-cyclopropyl-3-(4-(5-methyl-4-morpholino-6,6-dioxido-5,7-dihydrothieno[3,4-d]pyrimidin-2-yl)phenyl)urea], the IC50 is reported as over 10 µM.
`CC1c2c(nc(-c3ccc(NC(=O)NC4CC4)cc3)nc2N2CC3CCC(C2)O3)CS1(=O)=O` (centres unmarked) [Example 34, 1-(4-(4-(8-oxa-3-azabicyclo[3.2.1]octan-3-yl)-5-methyl-6,6-dioxido-5,7-dihydrothieno[3,4-d]pyrimidin-2-yl)phenyl)-3-cyclopropylurea] showed an IC50 of over 10 µM.
Compound `C[C@H]1COCCN1c1nc(-c2ccc(NC(=O)Nc3cccnc3)cc2)nc2c1CS(=O)(=O)C2` [Example 36, (S)-1-(4-(4-(3-methylmorpholino)-6,6-dioxido-5,7-dihydrothieno[3,4-d]pyrimidin-2-yl)phenyl)-3-(pyridin-3-yl)urea] has an IC50 of over 10 µM.
`O=C(NCC(F)F)Nc1ccc(-c2nc3c(c(N4CC5CCC(C4)O5)n2)CS(=O)(=O)C3)cc1` [Example 24, 1-(4-(4-(8-oxa-3-azabicyclo[3.2.1]octan-3-yl)-6,6-dioxido-5,7-dihydrothieno[3,4-d]pyrimidin-2-yl)phenyl)-3-(2,2-difluoroethyl)urea] showed an IC50 of over 10 µM.
With `C[C@H]1COCCN1c1nc(-c2ccc(NC(=O)NCC(F)F)cc2)nc2c1CS(=O)(=O)C2` [Example 23, (S)-1-(2,2-difluoroethyl)-3-(4-(4-(3-methylmorpholino)-6,6-dioxido-5,7-dihydrothieno[3,4-d]pyrimidin-2-yl)phenyl)urea] the IC50 was over 10 µM.
`C[C@H]1COCCN1c1nc(-c2ccc(NC(=O)Nc3ccncc3)cc2)nc2c1CS(=O)(=O)C2` [Example 35, (S)-1-(4-(4-(3-methylmorpholino)-6,6-dioxido-5,7-dihydrothieno[3,4-d]pyrimidin-2-yl)phenyl)-3-(pyridin-4-yl)urea] showed an IC50 of over 10 µM.
For `O=C(NCCF)Nc1ccc(-c2nc3c(c(N4CC5CCC(C4)O5)n2)CS(=O)(=O)C3)cc1` [Example 22, 1-(4-(4-(8-oxa-3-azabicyclo[3.2.1]octan-3-yl)-6,6-dioxido-5,7-dihydrothieno[3,4-d]pyrimidin-2-yl)phenyl)-3-(2-fluoroethyl)urea], the IC50 was over 10 µM.
In the case of `CNC(=O)Nc1ccc(-c2nc3c(c(N4CC5CCC(C4)O5)n2)CS(=O)(=O)C3)cc1` [Example 21, 1-(4-(4-(8-oxa-3-azabicyclo[3.2.1]octan-3-yl)-6,6-dioxido-5,7-dihydrothieno[3,4-d]pyrimidin-2-yl)phenyl)-3-methylurea], the IC50 is reported as over 10 µM.
`C[C@H]1COCCN1c1nc(-c2ccc(NC(=O)NC3CC3)cc2)nc2c1SCCC2` [Example 8, (S)-1-cyclopropyl-3-(4-(4-(3-methylmorpholino)-7,8-dihydro-6H-thiopyrano[3,2-d]pyrimidin-2-yl)phenyl)urea] gave an IC50 of over 10 µM.
Compound `CC1c2c(N3CCOC[C@@H]3C)nc(-c3ccc(NC(=O)NCCF)cc3)nc2C(C)(C)S1(=O)=O` (stereo partly drawn) [Example 75, 1-(2-fluoroethyl)-3-(4-(5,7,7-trimethyl-4-((S)-3-methylmorpholino)-6,6-dioxido-5,7-dihydrothieno[3,4-d]pyrimidin-2-yl)phenyl)urea] has an IC50 of over 10 µM.
`C[C@@H]1CN(c2nc(-c3ccc(NC(=O)NC4CC4)cc3)nc3c2CS(=O)(=O)C3)C[C@H](C)O1` [Example 19, 1-cyclopropyl-3-(4-(4-((2S,6R)-2,6-dimethylmorpholino)-6,6-dioxido-5,7-dihydrothieno[3,4-d]pyrimidin-2-yl)phenyl)urea] was tested, and the IC50 was over 10 µM.
For `CC(C)NC(=O)Nc1ccc(-c2nc3c(c(N4CCOC[C@@H]4C)n2)CS(=O)(=O)C3)cc1` [Example 25, (S)-1-isopropyl-3-(4-(4-(3-methylmorpholino)-6,6-dioxido-5,7-dihydrothieno[3,4-d]pyrimidin-2-yl)phenyl)urea], the IC50 was over 10 µM.

Each compound was assayed against PI3K beta (PI3 Kb) (Homo sapiens, UniProt P42338) (assay: kinobeads assay, PI3K beta). Conditions: Jurkat cell lysate, read-out: PI3Kb inhibition value (IC50), activity level.
Format: binding
`CC1c2c(nc(-c3ccc(NC(=O)NC4CC4)cc3)nc2N2CC3CCC(C2)O3)CS1(=O)=O` (centres unmarked) [Example 34, 1-(4-(4-(8-oxa-3-azabicyclo[3.2.1]octan-3-yl)-5-methyl-6,6-dioxido-5,7-dihydrothieno[3,4-d]pyrimidin-2-yl)phenyl)-3-cyclopropylurea] showed an IC50 of over 10 µM.
Work on `CC1c2c(N3CCOC[C@@H]3C)nc(-c3ccc(NC(=O)NCCF)cc3)nc2C(C)(C)S1(=O)=O` (stereo partly drawn) [Example 75, 1-(2-fluoroethyl)-3-(4-(5,7,7-trimethyl-4-((S)-3-methylmorpholino)-6,6-dioxido-5,7-dihydrothieno[3,4-d]pyrimidin-2-yl)phenyl)urea] yielded an IC50 of over 10 µM.

What follows are compounds tested against PI3K delta (PI3 Kd) (Homo sapiens, UniProt O00329) (assay: kinobeads assay, PI3K delta). Conditions: Jurkat cell lysate, read-out: PI3Kd inhibition value (IC50), activity level.
Format: binding
For `CC1c2c(nc(-c3ccc(NC(=O)NC4CC4)cc3)nc2N2CC3CCC(C2)O3)CS1(=O)=O` (centres unmarked) [Example 34, 1-(4-(4-(8-oxa-3-azabicyclo[3.2.1]octan-3-yl)-5-methyl-6,6-dioxido-5,7-dihydrothieno[3,4-d]pyrimidin-2-yl)phenyl)-3-cyclopropylurea], the IC50 was over 10 µM.
